Laboratory results: PMC5145767 (Neuron, 2016)

By UniProt entry, the sequences of proteins in these tests, tags left out. Where a name states a change or a piece, a line headed by the entry shows the natural chain unless it says otherwise. Residues count along the entry.
UniProt Q03445, 28-991: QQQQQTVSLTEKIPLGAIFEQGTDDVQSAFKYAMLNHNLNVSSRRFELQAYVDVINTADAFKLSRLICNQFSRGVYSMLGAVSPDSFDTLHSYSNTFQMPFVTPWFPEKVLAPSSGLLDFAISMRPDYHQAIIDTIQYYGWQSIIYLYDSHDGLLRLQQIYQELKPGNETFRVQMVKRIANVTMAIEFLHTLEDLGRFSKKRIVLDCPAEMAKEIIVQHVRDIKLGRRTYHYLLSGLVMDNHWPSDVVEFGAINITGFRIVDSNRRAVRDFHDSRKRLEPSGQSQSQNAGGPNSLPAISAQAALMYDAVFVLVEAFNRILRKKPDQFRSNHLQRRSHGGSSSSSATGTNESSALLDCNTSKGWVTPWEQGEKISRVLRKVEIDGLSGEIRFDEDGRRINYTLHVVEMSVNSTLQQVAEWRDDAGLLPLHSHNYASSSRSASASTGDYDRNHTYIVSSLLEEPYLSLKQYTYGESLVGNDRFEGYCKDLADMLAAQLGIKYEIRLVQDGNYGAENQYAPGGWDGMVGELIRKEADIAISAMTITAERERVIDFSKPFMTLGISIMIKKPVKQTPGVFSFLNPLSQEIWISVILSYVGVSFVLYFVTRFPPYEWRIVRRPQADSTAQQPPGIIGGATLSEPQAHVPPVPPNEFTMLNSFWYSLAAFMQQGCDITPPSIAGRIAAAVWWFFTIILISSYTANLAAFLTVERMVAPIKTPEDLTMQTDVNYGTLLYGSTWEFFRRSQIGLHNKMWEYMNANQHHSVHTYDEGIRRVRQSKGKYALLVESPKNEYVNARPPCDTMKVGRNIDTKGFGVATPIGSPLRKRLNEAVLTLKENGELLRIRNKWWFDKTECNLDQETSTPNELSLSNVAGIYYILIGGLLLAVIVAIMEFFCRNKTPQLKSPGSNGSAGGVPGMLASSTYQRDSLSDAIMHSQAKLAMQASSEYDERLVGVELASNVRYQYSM
UniProt Q9VDH5: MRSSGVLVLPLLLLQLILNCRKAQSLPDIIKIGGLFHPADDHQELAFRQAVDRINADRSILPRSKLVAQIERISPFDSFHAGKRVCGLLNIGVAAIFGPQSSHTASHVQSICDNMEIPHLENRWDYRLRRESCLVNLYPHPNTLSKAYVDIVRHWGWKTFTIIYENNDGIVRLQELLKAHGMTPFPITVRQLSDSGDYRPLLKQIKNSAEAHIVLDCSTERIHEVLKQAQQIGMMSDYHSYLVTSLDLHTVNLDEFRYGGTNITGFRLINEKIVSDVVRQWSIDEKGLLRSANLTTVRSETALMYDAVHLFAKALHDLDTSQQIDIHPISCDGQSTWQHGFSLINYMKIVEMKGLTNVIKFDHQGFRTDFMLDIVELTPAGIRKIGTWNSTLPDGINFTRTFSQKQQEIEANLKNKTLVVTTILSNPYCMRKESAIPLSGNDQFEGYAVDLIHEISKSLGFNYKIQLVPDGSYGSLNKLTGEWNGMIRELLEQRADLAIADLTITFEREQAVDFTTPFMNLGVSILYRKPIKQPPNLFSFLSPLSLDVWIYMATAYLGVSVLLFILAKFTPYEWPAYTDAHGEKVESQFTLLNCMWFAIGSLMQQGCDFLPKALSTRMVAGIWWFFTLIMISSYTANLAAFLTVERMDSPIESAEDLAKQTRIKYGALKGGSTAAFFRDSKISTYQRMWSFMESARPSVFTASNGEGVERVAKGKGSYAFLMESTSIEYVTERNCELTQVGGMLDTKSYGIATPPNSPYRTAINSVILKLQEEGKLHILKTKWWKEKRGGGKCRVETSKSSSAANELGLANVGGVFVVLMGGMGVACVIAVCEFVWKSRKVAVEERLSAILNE

Experiments:
[1] = biological target: DGluR1A (Drosophila melanogaster, UniProt Q03445); experiment: DGluR1A coexpressed with Apis Stg1 in Xenopus oocytes; assay type: cell-based; details: agonists 3 mM, -60 mV
[2] = biological target: DKaiR1D (Drosophila melanogaster, UniProt Q9VDH5); assay type: cell-based

C=C(C)[C@H]1CN[C@H](C(=O)O)[C@H]1CC(=O)O [kainate]
response relative to glutamate response [1]: 4.1 ± 0.3 times | EC50 [2]: 39 ± 1 µM | amplitude of responses relative to those to glutamate ([2]; all ligands 10 mM, fraction of glutamate response, -60 mV): 0.37 ± 0.03 | response relative to glutamate at saturating concentrations ([2]; saturating concentrations): 16%
